Experimental findings from US20050148631A1, “Amino heterocyclyl inhibitors of 11-beta-hydroxy steroid dehydrogenase type 1” (AGOURON PHARMACEUTICALS, INC., priority 2003, published 2005) are described below.

The chains behind the UniProt entries cited, without tags or fusion partners.
UniProt P28845, whole entry: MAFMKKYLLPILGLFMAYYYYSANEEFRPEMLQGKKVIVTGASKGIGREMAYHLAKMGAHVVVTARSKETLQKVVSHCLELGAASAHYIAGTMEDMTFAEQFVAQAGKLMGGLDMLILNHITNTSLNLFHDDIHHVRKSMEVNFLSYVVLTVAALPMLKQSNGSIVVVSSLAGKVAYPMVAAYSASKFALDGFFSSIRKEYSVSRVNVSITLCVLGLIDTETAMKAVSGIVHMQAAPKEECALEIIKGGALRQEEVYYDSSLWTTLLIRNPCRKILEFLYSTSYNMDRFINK

The target in test [1] is T1, 11β-hsd-1 enzyme (Homo sapiens, UniProt P28845). The experiment in a line: 11β-hsd-1 enzyme assay, percentage of inhibition (3H-cortisone to cortisol, radio-HPLC). Format: biochemical.
For test [2], the target named is T1, 11β-hsd-1 enzyme. The test is described as follows: 11β-hsd-1 enzyme assay, Kiapp determination (3H-cortisone to cortisol, radio-HPLC). Format: biochemical. The conditions noted are these: read-out: Ki app.

SMILES strings stand for the structures.

Take `Nc1cccc(NS(=O)(=O)c2ccc3c(Cl)cccc3c2)n1`: the “% inh @ 0.1 uM” value in test [1] is reported as 100%. Moreover, the Ki in test [2] is below 1 nM.

For `Cc1cccc(NS(=O)(=O)c2sc(-c3ccccc3)cc2C)n1`, in test [1], the “% inh @ 0.1 uM” value came to 76.3%. For the same molecule, in test [2], the Ki is 32.8 nM.
